Drawing on US20230277590A1, this text covers Time (hours) to 80% max killing of HeLa cells by transduced primary T cells (hours to 80% max killing (E:T 4:1)) for one substance.

This assay addresses Mesothelin (MSLN) on target cells (human).

Turning to “murine SS1 MSLN CAR, second generation (MSLN_SS1 CD8HT 41BB CD3z)”, the Time (hours) to 80% max killing of HeLa cells by transduced primary T cells (hours to 80% max killing (E:T 4:1)) amounted to 44.
